Data on one compound can be found in ChEMBL document CHEMBL2390846, “Small-molecule pyrimidine inhibitors of the cdc2-like (Clk) and dual specificity tyrosine phosphorylation-regulated (Dyrk) kinases: development of chemical probe ML315” (Bioorg Med Chem Lett, 2013).

Amino acid sequences for entries named in this document (tags omitted). A change or cut given only in a name is not applied to a line headed by its entry.
UniProt Q9HAZ1: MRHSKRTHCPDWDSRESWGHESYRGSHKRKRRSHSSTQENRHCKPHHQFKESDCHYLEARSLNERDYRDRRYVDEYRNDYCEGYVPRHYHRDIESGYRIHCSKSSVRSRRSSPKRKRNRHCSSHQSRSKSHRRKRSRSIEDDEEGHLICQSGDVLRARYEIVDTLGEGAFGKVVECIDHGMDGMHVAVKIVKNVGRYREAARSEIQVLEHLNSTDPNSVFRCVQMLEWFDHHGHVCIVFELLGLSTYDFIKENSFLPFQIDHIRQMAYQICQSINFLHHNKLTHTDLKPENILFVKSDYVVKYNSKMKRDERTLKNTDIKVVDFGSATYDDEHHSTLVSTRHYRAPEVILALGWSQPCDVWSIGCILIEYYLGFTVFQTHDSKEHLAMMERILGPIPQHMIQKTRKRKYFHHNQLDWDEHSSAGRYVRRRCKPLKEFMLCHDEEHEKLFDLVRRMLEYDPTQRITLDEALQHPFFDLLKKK

This experiment deals with Dual specificity protein kinase CLK4 (Homo sapiens, UniProt Q9HAZ1). In words: Inhibition of CLK4 (unknown origin) by bioluminescence assay.

As a reminder, the IC50 is the concentration at which inhibition is half-maximal. Read a low IC50 as higher potency.

With `c1cncc(CNc2ncncc2-c2ccc3c(c2)OCO3)c1`, the IC50 was 9.23 µM.
